Assay results: ChEMBL document CHEMBL1141712, “Kinase array design, back to front: biaryl amides” (Bioorg Med Chem Lett, 2008)

Amino acid sequences for entries named in this document (tags omitted). A change or cut given only in a name is not applied to a line headed by its entry.
UniProt P53779: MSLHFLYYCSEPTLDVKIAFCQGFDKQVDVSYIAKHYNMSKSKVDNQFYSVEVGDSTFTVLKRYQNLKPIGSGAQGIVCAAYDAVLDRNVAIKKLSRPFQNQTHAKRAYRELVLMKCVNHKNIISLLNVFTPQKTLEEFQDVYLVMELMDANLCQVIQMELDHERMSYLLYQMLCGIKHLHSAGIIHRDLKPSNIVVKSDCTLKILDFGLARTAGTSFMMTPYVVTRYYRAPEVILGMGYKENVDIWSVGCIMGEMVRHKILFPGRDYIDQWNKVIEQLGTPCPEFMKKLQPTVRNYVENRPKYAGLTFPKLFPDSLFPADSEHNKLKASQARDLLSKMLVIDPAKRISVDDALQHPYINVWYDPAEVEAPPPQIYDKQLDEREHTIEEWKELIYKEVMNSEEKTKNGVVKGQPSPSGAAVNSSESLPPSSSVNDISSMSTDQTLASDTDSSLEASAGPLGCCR
UniProt Q15303, whole entry: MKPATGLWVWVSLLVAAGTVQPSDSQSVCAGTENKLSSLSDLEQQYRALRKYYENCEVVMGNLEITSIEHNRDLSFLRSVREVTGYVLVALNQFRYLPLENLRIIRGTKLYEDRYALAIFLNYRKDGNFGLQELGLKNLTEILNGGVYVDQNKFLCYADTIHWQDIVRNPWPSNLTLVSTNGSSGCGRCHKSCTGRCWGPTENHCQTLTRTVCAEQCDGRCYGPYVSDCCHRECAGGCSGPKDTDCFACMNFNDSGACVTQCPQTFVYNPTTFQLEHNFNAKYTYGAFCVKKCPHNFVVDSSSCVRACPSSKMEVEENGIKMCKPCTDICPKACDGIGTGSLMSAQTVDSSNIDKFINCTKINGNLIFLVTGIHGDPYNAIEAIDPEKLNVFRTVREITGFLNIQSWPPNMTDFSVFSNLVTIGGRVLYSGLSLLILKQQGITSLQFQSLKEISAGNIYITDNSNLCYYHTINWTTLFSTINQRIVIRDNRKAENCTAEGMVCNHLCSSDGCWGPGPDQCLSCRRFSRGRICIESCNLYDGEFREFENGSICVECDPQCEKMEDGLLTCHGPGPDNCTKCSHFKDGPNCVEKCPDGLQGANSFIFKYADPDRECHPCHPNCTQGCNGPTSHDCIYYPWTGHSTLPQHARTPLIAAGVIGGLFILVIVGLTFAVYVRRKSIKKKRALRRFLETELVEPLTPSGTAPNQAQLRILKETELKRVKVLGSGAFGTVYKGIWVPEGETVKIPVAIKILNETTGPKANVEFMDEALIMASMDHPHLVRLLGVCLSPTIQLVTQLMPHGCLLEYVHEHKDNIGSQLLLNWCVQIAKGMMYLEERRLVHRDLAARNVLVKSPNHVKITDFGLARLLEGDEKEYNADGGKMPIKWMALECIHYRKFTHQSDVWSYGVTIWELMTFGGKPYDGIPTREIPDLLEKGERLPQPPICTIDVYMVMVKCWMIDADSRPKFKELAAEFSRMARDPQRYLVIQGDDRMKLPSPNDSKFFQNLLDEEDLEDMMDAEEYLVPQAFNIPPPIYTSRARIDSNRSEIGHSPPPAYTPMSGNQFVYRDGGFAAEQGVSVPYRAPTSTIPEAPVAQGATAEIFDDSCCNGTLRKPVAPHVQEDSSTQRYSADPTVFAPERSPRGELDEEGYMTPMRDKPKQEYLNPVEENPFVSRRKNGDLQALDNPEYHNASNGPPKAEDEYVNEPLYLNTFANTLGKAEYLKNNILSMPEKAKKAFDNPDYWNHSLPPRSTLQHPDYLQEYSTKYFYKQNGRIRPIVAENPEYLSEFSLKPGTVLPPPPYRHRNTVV

Assays:
[1] = target: Mitogen-activated protein kinase 10 (Homo sapiens, UniProt P53779); assay: Inhibition of JNK3
[2] = target: Receptor tyrosine-protein kinase erbB-4 (Homo sapiens, UniProt Q15303); assay: Inhibition of ErbB4

Row | IC50 [1] [µM] | SMILES | IC50 [2] [µM]
1 | > 16 | Cc1ccc(C(=O)NC2CC2)cc1-c1ccc2c(C3CCNCC3)noc2c1 | 
2 |  | Cc1nnc(-c2ccc(-c3cc(C(=O)NC4CC4)ccc3C)c(C)c2)o1 | > 25
3 |  | Cc1nnc(-c2ccc(-c3cc(C(=O)Nc4cccc(N5CCOCC5)c4)ccc3C)c(C)c2)o1 | > 25
